# Assay results as given in US5624941A, “Pyrazole derivatives, method of preparing them and pharmaceutical compositions in which they are present” (Sanofi, priority 1992, dated 1997).
# Protein sequences, listed by entry. Tags and fused reporters are not part of them.
# UniProt P20272, whole entry: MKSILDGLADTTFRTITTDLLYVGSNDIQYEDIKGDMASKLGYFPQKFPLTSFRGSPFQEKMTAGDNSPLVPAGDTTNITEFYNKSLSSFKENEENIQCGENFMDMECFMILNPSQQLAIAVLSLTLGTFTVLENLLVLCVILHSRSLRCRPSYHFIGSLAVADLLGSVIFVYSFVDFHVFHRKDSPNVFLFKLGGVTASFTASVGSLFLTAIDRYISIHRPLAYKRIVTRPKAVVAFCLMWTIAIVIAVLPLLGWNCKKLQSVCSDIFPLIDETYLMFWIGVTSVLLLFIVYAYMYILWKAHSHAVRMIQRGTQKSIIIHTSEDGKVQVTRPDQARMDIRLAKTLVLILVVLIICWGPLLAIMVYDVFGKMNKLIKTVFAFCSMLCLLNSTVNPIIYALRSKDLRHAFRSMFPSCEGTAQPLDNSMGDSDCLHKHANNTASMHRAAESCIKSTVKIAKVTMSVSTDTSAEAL
# Target: central cannabinoid receptors (Rattus norvegicus, UniProt P20272)
# Settings: compound or one of its pharmaceutically acceptable salts
compound,measurement,value
"Cc1c(C(=O)NN2CCCCC2)nn(-c2ccc(Cl)cc2Cl)c1-c1ccc(Cl)cc1 [N-piperidino-5-(4-chlorophenyl)-1-(2,4-dichlorophenyl)-4-methyl-pyrazole-3-carboxamide]",affinity for the central cannabinoid receptors,very good affinity
